# Measured values: patent US20170112896A1, “SMALL MOLECULE RAC OR RHO INHIBITORS” (Ohio State Innovation Foundation, priority 2014, published 2017)
# By UniProt entry, the sequences of proteins in these tests, tags left out. Residues count along the entry.
# UniProt P01116, 1-185 isoform P01116-2 G12V: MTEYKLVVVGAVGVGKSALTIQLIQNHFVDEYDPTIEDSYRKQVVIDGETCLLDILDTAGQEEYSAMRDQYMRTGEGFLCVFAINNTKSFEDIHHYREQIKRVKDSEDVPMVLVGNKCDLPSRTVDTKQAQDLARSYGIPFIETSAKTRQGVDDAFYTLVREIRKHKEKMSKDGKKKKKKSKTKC
# Target: T1, Ras(G12V)-Raf RBD interaction (Homo sapiens, UniProt P01116, G12V)
# T1 construct: The G12V mutant K-Ras (amino acids 1-185) was recombinantly fused to glutathione 5-transferase (GST) at its N-terminus; GST (N, cleaved yes); made in house; host or cells: Escherichia coli BL21
# Experiment: HTRF assay, inhibition of Ras-Raf RBD interaction
# Format: binding
# Settings: unlabeled peptide
structure (smiles),measurement,value
CCCC[C@H]1NC(=O)[C@H](Cc2ccc(F)cc2)NC(=O)[C@H](CCCNC(=N)N)NC(=O)[C@@H](Cc2ccc3ccccc3c2)NC(=O)[C@H](CCCNC(=N)N)NC(=O)[C@H](CCCNC(=N)N)NC(=O)[C@H](CCCNC(=N)N)NC(=O)[C@@H](C)NC(=O)[C@H]([C@@H](C)O)NC(=O)[C@H](Cc2cn(Cc3ccccc3)cn2)NC(=O)[C@H](CCC(N)=O)NC1=O [Cyclorasin 9A7],IC50,440 ± 160 nM
